Tests used:
[1] = One-photon absorption and emission spectra, fluorescence quantum yield; assay type: physicochemical; settings: MOPS buffer pH 7.2, presence of 39 μM free Ca2+
Method: The absorption spectra of the compound of Formula 7 were recorded on a Hewlett-Packard 8453 diode array spectrophotometer, and the fluorescence spectra of the compound were obtained with Amico-Bowman series 2 luminescence spectrometer with a 1 cm standard quartz cell. The fluorescence quantum yield of the compound was determined by using Coumarin 307 as the reference by the literature method (J. N. Demas, G. A. Crosby, J. Phys. Chem. 1971, 75, 991-1024.).

[2] = Two-photon action spectra / two-photon cross section; assay type: physicochemical; settings: presence of 39 μM free Ca2+
Description: The TP action spectra of the Ca^2+ complexes with the compound of Formula 4 and OG1 in buffer solutions indicated a value of 110 GM at 780 nm for Φδ for the compound of Formula 4-Ca^2+, 5-fold larger than that of OG1-Ca^2+. Thus, TPM images for samples stained with the compound of Formula 4 would be much brighter than those stained with commercial probe. In addition, the two-photon fluorescence enhancement factor (TFEF) estimated from the two-photon titration curve was 44 (Table 2), a value that allowed detection of Ca^2+ by TPM.
The two-photon cross section (δ) was determined by using femto second (fs) fluorescence measurement technique (S. K. Lee, W. J. Yang, J. J. Choi, C. H. Kim, S.-J, Jeon, B. R. Cho, Org. Lett. 2005, 7, 323-326).

- λmax^(l) one-photon absorption [1]: 494 nm
- λmax^fl one-photon emission [1]: 523 nm
- Φ fluorescence quantum yield ([1]; ±10%): 0.66
- Φδ two-photon action cross section [2]: 24 GM
- λmax^(2) of the two-photon excitation spectra [2]: 800 nm
- δ peak two-photon cross section ([2]; ±15%): 37 GM
Substance: Oregon Green 488 BAPTA-1 [OG1, reference compound]

Source: US8084647B2, “Two-photon probe for real-time monitoring of intracellular calcium ions, method for preparing the probe and method for real-time monitoring of intracellular calcium ions using the probe” (Korea University Industry and Academy Cooperation Foundation, priority 2007, dated 2011)
